A selection: hits, their analogues and other compounds. The true share with any hit is near 1.2%.
Cneo AK release: Cryptococcus neoformans cell lysis inducers, primary screen, AK release luminescence, single concentration. C. neoformans lysis, adenylate kinase release luminescence, 4 h; normalised: neutral wells 0, clomiphene wells 100. lysis activity, % at 15 µM. actives 0.2% (n = 360,000);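 active means mean lysis activity across replicates of at least 80%, whatever share of replicates individually reach that level; inactive means mean lysis activity below 80%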
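Schedule: static 4 h at 37 °C with compound, 1 h detection; system: C. neoformans cells; benchmarks: Clomiphene as positive control; buffer or medium: fresh YPD medium; measure: luminescence rise reflecting yeast cell lysis; measured by: luminescent adenylate kinase detection reagent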
miR-122 sensor: miR-122 Renilla sensor signal increase in Huh7, primary screen, miR-122 inhibitor project, cell-based, single point, plate reader. Huh7 miR-122 Renilla luciferase sensor, 48 h; neutral wells = 0, positive control = 100. actives 0.3% (n = 340,000). AID 602342, 2012. activation (reporter increase), % at 12.5 µM;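 active means mean replicate activation score at least 90 and every replicate individually at or above 90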;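 further: higher luciferase means less miR-122 activity so hits act as miR-122 inhibitors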
C2C12 statin: suppressors of statin myotoxicity in C2C12 myotubes, primary screen, cell-based, single point, plate reader | C2C12 myotubes + simvastatin, ATP luminescence, 48 h; scaled: DMSO 0, geranylgeraniol control 100 | rescue of ATP level, % at 7.49 µM | actives 0.78% (n = 330,000) | AID 602340, 2012;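 active means mean ATP rescue above about 67%, or every replicate alone reaching that limit, limit read from the data, passing the limit was not always enough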;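 further: myotubes were challenged with 10 µM simvastatin during compound exposure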
N-glyco inh: increase of ERlucT glycosylation luciferase signal, primary screen, N-linked glycosylation inhibitor project, D54 ERlucT cells, luminescence, set 2; reporter increase, % at 12.5 µM; AID 588692, 2011; actives 0.23% (n = 360,000); D54 ERlucT glycosylation luciferase reporter, 24 h; percent of 100 nM tunicamycin response;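 active means mean luciferase reporter signal, scaled so untreated is 0 and the glycosylation-blocking control 100, at or above a set limit in every replicate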;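 further: luciferase carries N-glycosylation sites so blocking glycosylation raises the light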
Yeast UUG start: modulators of yeast start codon fidelity, primary screen, whole organism, S. cerevisiae, single point, plate reader | AID 602363, 2012 | S. cerevisiae UUG-firefly luciferase reporter, luminescence/redox ratio | activity score, % at 18.7 µM | hit rate 0.13% among 350,000;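 active = replicate mean at a twofold rise or more, about +100% in these data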;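 also: firefly luciferase made from a UUG start codon reports start codon fidelity; reporter light over untreated wells divided by growth signal over untreated wells; some hits fall short of that in this replicate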
Numbers stand for hits; - = inactive; . = not tested or not shown.

SMILES | Cneo AK release | miR-122 sensor | C2C12 statin | N-glyco inh | Yeast UUG start
O=S(=O)(Nc1ccc(NS(=O)(=O)c2ccccc2)cc1)c1ccccc1 | . | . | . | - | .
COC(=O)c1ccc(C)c(NS(=O)(=O)c2ccc(OC)c(OC)c2)c1 | - | 131 | - | - | -
COC(=O)c1cccc(NS(=O)(=O)c2ccc(OC)c(OC)c2)c1C | - | . | - | - | -
Cc1cc(S(=O)(=O)Nc2cccnc2)c(C)s1 | - | - | - | - | -
Cc1ccc(S(=O)(=O)Nc2ccc3c(c2)CCC3)cc1 | - | 167 | . | - | -
O=S(=O)(Nc1ccc2ccccc2c1)c1ccccc1 | . | 170 | - | - | .
Cc1cc(S(=O)(=O)Nc2ccc3ccccc3c2)c(C)s1 | - | 540 | - | - | -
Cc1ccc(S(=O)(=O)Nc2ccc3c(c2)CCC3)cc1C | - | - | - | - | -
Oc1ccc(-c2nc3ccccn3c2NCc2ccco2)cc1 | - | - | 81 | - | -
C[C@@H]1CN([C@H](C)CO)C(=O)Cc2cc(NC(=O)Nc3ccccc3)ccc2O[C@H]1CN(C)S(=O)(=O)c1cn(C)cn1 | - | - | - | . | -
O=S(=O)(c1ccccc1)N(CC(O)COc1ccccc1)c1ccccc1 (stereo not drawn) | - | 131 | - | - | -
COc1cccc(NS(=O)(=O)c2ccc(Br)s2)c1 | - | 218 | - | - | -
COc1cccc(NS(=O)(=O)c2c(C)cc(C)cc2C)c1 | - | 399 | - | - | -
O=C(C1CC1)N1C[C@@H]2[C@H](c3ccccc31)[C@@H](CO)N2S(=O)(=O)c1ccccc1 | - | - | - | . | -
COCCNC(=O)c1cn(CCOC)c(=O)c2c1c1ccccc1n2C | - | - | - | - | -
CCC(=O)N(C)C[C@H]1Oc2ncc(C#CC3(O)CCCC3)cc2C(=O)N([C@@H](C)CO)C[C@H]1C | - | - | - | . | -
CCOC(=O)NC(=O)/C(N=Nc1ccc(C(F)(F)F)cc1)=C(\C)O | - | - | 99 | - | -
CCOC(=O)[C@H]1[C@H]2COc3ccc(Br)cc3[C@@H]2N2C(=O)c3cc(OC)c(OC)cc3NC(=O)[C@@]12C | - | - | - | 31 | -
CCOC(=O)[C@H]1[C@H]2COc3ccc(Cl)cc3[C@@H]2N2C(=O)c3ccccc3NC(=O)[C@@]12C | - | - | 135 | - | -
CCOC(=O)[C@H]1[C@H]2COc3ccc(OC)cc3[C@@H]2N2C(=O)c3cc(OC)c(OC)cc3NC(=O)[C@@]12C | - | - | - | 31 | -
O=c1cc(O)n(-c2ccccc2)c(=S)[nH]1 | - | - | - | - | -
N=c1n(-c2ccccc2)c(O)cc(=O)n1-c1ccccc1 | - | - | 123 | - | -
CCOC(=O)c1ccccc1NC(=O)C1COc2ccccc2O1 (stereo not drawn) | - | - | 94 | - | -
Cc1ccc(S(=O)(=O)Nc2ccc3c(c2)C(=O)N([C@H](C)CO)C[C@@H](C)[C@H](CN(C)C(=O)Nc2ccc(F)cc2)OCCCC[C@@H](C)O3)cc1 | - | - | . | . | -
CN(C)Cc1csc(NC(=O)Nc2ccccc2Oc2ccccc2)n1 | - | - | 73 | - | -
SMILES | Cneo AK release | miR-122 sensor | C2C12 statin | N-glyco inh | Yeast UUG start
CN(C)Cc1csc(NC(=O)Nc2ccccc2-c2ccccc2)n1 | - | - | - | - | -
Cc1noc(C)c1NC(=O)Nc1ccc2c(c1)C(=O)N([C@H](C)CO)C[C@H](C)[C@H](CN(C)S(=O)(=O)c1ccccc1)OCCCC[C@H](C)O2 | - | - | . | . | -
COC(=O)NNC(=O)COc1ccc(Cl)cc1 | - | - | 94 | - | -
Cc1cccc(S(=O)(=O)N2CC[C@@H]3[C@@H](CO)N(C)c4ccc(-c5ccc(C#N)cc5)cc4[C@@H]32)c1 | - | - | - | . | -
O=C(O/N=C1\CCS(=O)(=O)c2sccc21)c1ccc(F)cc1 | - | - | - | - | -
O=C(O/N=C1\CCS(=O)(=O)c2sccc21)c1ccccc1 | - | 170 | - | - | -
CC1CC(C)CN(C(=O)CSC2=Nc3ccccc3C3=NC(Cc4c[nH]c5ccccc45)C(=O)N23)C1 (stereo not drawn) | - | 212 | - | - | -
